Data: patent US20150173369A1, “S[…] CONTROL AND IMPROVED CROP TOLERANCE FROM COMBINATIONS OF 2,4-D-CHOLINE, GLYPHOSATE, AND G[…] 2,4-D-, GLYPHOSATE- AND GLUFOSINATE-TOLERANT SOYBEANS, CORN, COTTON AND OTHER CROP AREAS” (Dow AgroSciences LLC, priority 2013, published 2015)

System: AAD12 Soybean (GLXMA)
Test: Field trials, crop tolerance (% visual crop injury)
Format: in vivo, Glycine max L.
Details: table title: % Visual Necrosis; GLXMA 2DAA; 822 g ae/ha alone
Protocol: Field trials were conducted under agricultural field conditions in multiple states in the United States, including but not limited to Arkansas, Iowa, Illinois, Indiana, Kansas, Minnesota, Mississippi, Missouri, New York, Tennessee and Wisconsin. Trials were established as RCB (randomized complete block) design, with 3-4 replicates per treatment, and plot sizes varying from 5-10 feet (ft) wide by 12-30 ft long. Treatments were applied with small plot backpack sprayers, using pressurized carbon dioxide (CO2) as propellant. Pressure varied from 17-52 pounds per square inch (psi), with spray tips typically of a Flat Fan type applying water diluent at 15 gallons per acre (GPA). Boom sizes varied from 5-11 ft in width. Treatments were applied to soybean, cotton, corn or fallow crop land. Weed sizes varied, but all treatments were applied as post-emergence treatments to weeds from 2 leaf to 2 tiller growth stages varying from 3 to 17 inches in height. The weed spectrum included, but was not limited to, Amaranthus palmeri S. Wats. (Palmer amaranth, AMAPA), Ambrosia trifida L. (giant ragweed, AMBTR), Conyza canadensis (L.) Cronq. (horseweed, ERICA) and Salsola tragus L. (Russian thistle, SASKR). […]

SMILES: CP(=O)(O)CCC(N)C(=O)O (stereo not shown) [Glufosinate-Ammonium, ammonium (3-amino-3-carboxypropyl)(methyl)phosphinate]
- Mean % visual crop injury: 21.3%
